Data from US20190367871A1, “EMBRYONIC STEM CELL MEDIA AND CULTURE” (YISSUM RESEARCH DEVELOPMENT COMPANY OF THE HEBREW …, priority 2018, published 2019).
“Also recorded” adds a separate entry of the source.

Columns and labels:
mTORC2 = mTORC2 (Homo sapiens, UniProt P42345); assay: Western blot of phosphorylated AKT (mTORC2 target) in hESCs; assay type: cell-based; details: short- and long-term treatment
mTORC1 = mTORC1 (Homo sapiens, UniProt P42345); assay: Western blot of phosphorylated 4E-BP1 (mTORC1 target) in hESCs; assay type: cell-based; details: short- and long-term treatment

CCC(=O)N1CCN(c2ccc(-n3c(=O)ccc4cnc5ccc(-c6cnc7ccccc7c6)cc5c43)cc2C(F)(F)F)CC1 [Torin 1]
mTORC2 activity (phosphorylated AKT) (mTORC2): inhibit both mTORC1 and mTORC2; also recorded: inhibits both complexes
mTORC1 activity (phosphorylated 4E-BP1) (mTORC1): inhibit both mTORC1 and mTORC2; also recorded: inhibits both complexes
